The list shows a part of the results, in another mix than the full data. The source made the active and inactive calls. Calls come from the whole dose curve; as a rule, active = well fitted activation curve with a large enough effect; inconclusive = small, poorly fitted or top-dose-only effect; inactive = flat fitted curve, though single readings scatter.

A short description of the assay: qHTS of alpha-syn Inhibitors: NCGC Sytravon Library Screen. Note: 0% is about no effect. As to conditions: S. cerevisiae alpha-synuclein toxicity rescue, BacTiter-Glo growth, 24 h; at 46.1 µM (top of the series). From the text:
The goal of this project is to identify new chemical probes capable of reversing the toxicity associated with the Parkinson disease-related protein, alpha-synuclein. Compounds will be selected on their ability to restore growth in yeast cells expressing toxic levels of alpha-synuclein. These compounds will provide a complementary approach to deciphering the tangled mechanisms of toxicity and protection that we have uncovered through genome-wide genetic screens and are beginning to uncover in a large-scale proteomics analysis with mass spectroscopy. To this end, a miniaturized assay was developed to be screened against the Molecular Libraries Small Molecule Repository (MLSMR) to discover alpha-synuclein inhibitors. […] The phenotype of interest will be that of an Activator and this screen is run against the NCGC Sytravon Library collection. NIH Chemical Genomics Center [NCGC] NIH Molecular Libraries Probe Centers Network [MLPCN] MLPCN Grant: NS060957 Assay Submitter (PI): Susan Lindquist, Whitehead Institute/MIT
Dispense 2.5 microL yeast galactose medium per 1536-well plate, pin compound, dispense 2.5 microL alpha-synuclein expressing yeast in galactose medium at OD600=0.02 (pregrown in raffinose medium to mid-log phase) per well, incubate for 24 hr at 30 deg C, and cell growth will be measured using 5 microL of Bactiter/Glo reagent to entire plate and read using Luminescence Protocol in ViewLux.
Background: Quantitative high-throughput screening tests each substance at several concentrations.
For the compound `CCCOc1cccc(C(=O)NCC2(N3CCOCC3)CCCCC2)c1`, the growth rescue (activation) was inactive: -3.39%.

As to `COc1cc(C(=O)NCC2(N3CCCCC3)CCCCC2)ccc1OC(F)F`, the growth rescue (activation) was inactive: 7.99%.

Regarding `CCOc1ccc(C(=O)NCC2(N3CCOCC3)CCCCC2)cc1`, the growth rescue (activation) is inactive: -5.24%.

Consider `O=C(OC1CN2CCC1CC2)c1ccc([N+](=O)[O-])cc1` (configuration not stated), for which the growth rescue (activation) is inactive: 6.37%.

`Cc1ccc(C(=O)NCC2(N(C)C)CCCCC2)o1`: the growth rescue (activation) is inactive: -0.391%.

As to `CCCCOc1ccccc1C(=O)NCC1(N2CCOCC2)CCCCC1`, the growth rescue (activation) is inactive: -1.58%.

Turning to `CCCOc1ccc(C(=O)NCC2(N(C)C)CCCCC2)cc1OC`, the growth rescue (activation) was inactive: -0.0919%.

On to `O=C(NCC1(N2CCOCC2)CCCCC1)c1ccccc1Br`, for which the growth rescue (activation) is inactive: 2.59%.

Take `O=[N+]([O-])c1cc([N+](=O)[O-])c(Nc2ccc(Cl)cc2)c([N+](=O)[O-])c1`: the growth rescue (activation) is inactive: -62%.

As for `O=C(NCC1(N2CCCCC2)CCCCC1)c1ccc(Cl)nc1`, the growth rescue (activation) is inactive: -0.654%.

On to `COc1ccc(C(=O)NCC2(N3CCCCC3)CCCCC2)cc1`, for which the growth rescue (activation) was inactive: 5.44%.

For `COc1cc(C(=O)NCC2(N(C)C)CCCCC2)ccc1OC(F)F`, the growth rescue (activation) is inactive: -10%.

Consider `O=C(NCC1(N2CCOCC2)CCCCC1)c1ccc(Cl)cc1`, for which the growth rescue (activation) is inactive: -54%.

As for `O=C(NCC1(N2CCCCC2)CCCCC1)c1ccc(F)cc1`, the growth rescue (activation) is inactive: -0.224%.

Regarding `COc1ccccc1C(=O)NCC1(N2CCOCC2)CCCCC1`, the growth rescue (activation) was inactive: -9.54%.

For the compound `CC(C)(C)c1ccc(C(=O)NCC2(N3CCOCC3)CCCCC2)cc1`, the growth rescue (activation) is inactive: -1.99%.

As to `Cc1ccccc1C(=O)NCC1(N(C)C)CCCCC1`, the growth rescue (activation) is inactive: -6%.

On to `CN(C)C1(CNC(=O)c2ccc(C(C)(C)C)cc2)CCCCC1`, for which the growth rescue (activation) was inactive: -14.2%.

In the case of `Cc1ccc(C(=O)NCC2(N3CCCCC3)CCCCC2)o1`, the growth rescue (activation) was inactive: 10.2%.

On to `Cc1ccc(Nc2c([N+](=O)[O-])cc([N+](=O)[O-])cc2[N+](=O)[O-])cc1`, for which the growth rescue (activation) was inactive: -13.7%.

Consider `COc1cc(C(=O)NCC2(N3CCOCC3)CCCCC2)cc(OC)c1OC`, for which the growth rescue (activation) is inactive: 4.7%.

Turning to `COc1cc(OC)cc(C(=O)NCC2(N3CCOCC3)CCCCC2)c1`, the growth rescue (activation) was inactive: 13.1%.

Turning to `CCc1cc(C(=O)NCC2(N3CCCCC3)CCCCC2)sc1C`, the growth rescue (activation) was inactive: 0.104%.

Turning to `O=C(NCC1(N2CCOCC2)CCCCC1)c1ccccc1`, the growth rescue (activation) was inactive: -5.38%.

Regarding `O=C(NCC1(N2CCOCC2)CCCCC1)c1ccc([N+](=O)[O-])cc1`, the growth rescue (activation) was inactive: 1.84%.

Regarding `O=C(NCC1(N2CCOCC2)CCCCC1)c1ccccc1[N+](=O)[O-]`, the growth rescue (activation) is inactive: -11.4%.

On to `N#Cc1ccc(C(=O)NCC2(N3CCCCC3)CCCCC2)cc1`, for which the growth rescue (activation) is inactive: -1.07%.
